Results reported in ChEMBL document CHEMBL4382201 (J Med Chem, 2018).

Assays:
dsDNA [1] = assay: Induction of DNA-interstanded-cross-link formation in [32P]-labeled 49-mer duplex DNA (unknown origin) at 1 mM in absence of H2O2 after 16 hrs by PAGE relative to control; type: functional
Outline: (§1)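 A 32P-labelled 49-mer, annealed with 1.5 equiv complement (65 °C for 3 min in 10 mM potassium phosphate pH 7, 100 mM NaCl, then slow cooling), was used at 1.0 µM before final dilution. Duplex was mixed with compound (final 1 mM), NaCl and potassium phosphate pH 8, with or without H2O2. Incubation 16 h at room temperature, formamide quench, then 20% denaturing PAGE.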

dsDNA [2] = assay: Induction of DNA-interstanded-cross-link formation in [32P]-labeled 49-mer duplex DNA (unknown origin) at 1 mM in presence of H2O2 after 16 hrs by PAGE relative to control; type: functional; outline: as §1
[3] = Drug metabolism in DMSO-d6/PBS buffer assessed as N,N-bis(2-chloroethyl)aniline formation after 10 days in presence of GSH by IT-TOF mass analysis
[4] = Drug metabolism in DMSO-d6/PBS buffer assessed as 4-((2-chloroethyl)(2-hydroxyethyl)amino)phenylboronic acid formation after 10 days in presence of GSH by IT-TOF mass analysis
dsDNA [5] = assay: Potency index, ratio of compound activity to melphalan activity for induction of interstanded-cross-link formation in [32P]-labeled 49-mer duplex DNA (unknown origin) in presence of H202 after 16 hrs by PAGE
dsDNA [6] = assay: Potency index, ratio of compound activity to chlorambucil activity for induction of interstanded-cross-link formation in [32P]-labeled 49-mer duplex DNA (unknown origin) in presence of H202 after 16 hrs by PAGE

With `OB(O)c1ccc(N(CCCl)CCCl)cc1` the Activity (dsDNA [1]) was 1.7%, the Activity (dsDNA [2]) was < 65% and the Drug metabolism [3] was “Metabolite detected”. The Drug metabolism [4] was “Metabolite detected”, the Ratio (dsDNA [5]) was 8 and the Ratio (dsDNA [6]) was 8.
